Test results from ChEMBL document CHEMBL5126609, “Design, Synthesis, and Pharmacological Evaluation of Benzimidazolo-thiazoles as Potent CXCR3 Antagonists with Therapeutic Potential in Autoimmune Diseases: Discovery of ACT-672125” (J Med Chem, 2022).

Chains of the proteins cited; added tags and fusions are not shown. Lines headed by an entry give the natural chain unless they say otherwise; changes in a name come on top.
UniProt P61073, whole entry: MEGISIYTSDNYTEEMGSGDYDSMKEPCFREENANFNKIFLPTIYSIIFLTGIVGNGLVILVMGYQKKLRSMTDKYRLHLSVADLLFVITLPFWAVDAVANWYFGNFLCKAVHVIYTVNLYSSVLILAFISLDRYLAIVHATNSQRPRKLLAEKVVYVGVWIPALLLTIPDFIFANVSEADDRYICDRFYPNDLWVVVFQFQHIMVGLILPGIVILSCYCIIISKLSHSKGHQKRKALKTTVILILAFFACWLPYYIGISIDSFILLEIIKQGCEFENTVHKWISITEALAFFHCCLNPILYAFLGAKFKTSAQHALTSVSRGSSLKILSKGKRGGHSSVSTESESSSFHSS
UniProt P25106: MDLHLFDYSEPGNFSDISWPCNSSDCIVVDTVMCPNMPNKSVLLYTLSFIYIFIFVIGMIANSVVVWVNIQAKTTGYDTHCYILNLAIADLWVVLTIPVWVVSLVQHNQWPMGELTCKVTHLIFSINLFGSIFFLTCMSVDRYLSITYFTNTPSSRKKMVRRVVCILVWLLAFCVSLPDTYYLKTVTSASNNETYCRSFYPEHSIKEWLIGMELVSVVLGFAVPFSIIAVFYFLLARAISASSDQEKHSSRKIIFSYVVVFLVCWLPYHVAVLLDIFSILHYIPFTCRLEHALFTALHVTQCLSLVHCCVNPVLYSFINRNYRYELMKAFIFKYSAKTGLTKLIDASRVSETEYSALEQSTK
UniProt P41597: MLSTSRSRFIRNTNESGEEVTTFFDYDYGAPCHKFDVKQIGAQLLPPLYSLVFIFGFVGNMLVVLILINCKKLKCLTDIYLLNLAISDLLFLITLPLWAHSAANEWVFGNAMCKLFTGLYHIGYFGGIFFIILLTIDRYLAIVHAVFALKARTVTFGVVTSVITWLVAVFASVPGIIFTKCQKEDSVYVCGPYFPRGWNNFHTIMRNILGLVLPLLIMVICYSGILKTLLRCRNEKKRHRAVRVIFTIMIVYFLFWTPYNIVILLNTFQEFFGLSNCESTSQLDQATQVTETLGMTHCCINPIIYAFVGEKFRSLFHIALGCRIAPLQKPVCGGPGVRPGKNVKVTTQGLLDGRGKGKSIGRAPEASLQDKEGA

Tests used:
[1] = molecular target: T1, C-C chemokine receptor type 3 (Homo sapiens) (UniProt P51677); assay: Inhibition of CCR3 (unknown origin) at 10 uM relative to control
T1 sequence (whole entry): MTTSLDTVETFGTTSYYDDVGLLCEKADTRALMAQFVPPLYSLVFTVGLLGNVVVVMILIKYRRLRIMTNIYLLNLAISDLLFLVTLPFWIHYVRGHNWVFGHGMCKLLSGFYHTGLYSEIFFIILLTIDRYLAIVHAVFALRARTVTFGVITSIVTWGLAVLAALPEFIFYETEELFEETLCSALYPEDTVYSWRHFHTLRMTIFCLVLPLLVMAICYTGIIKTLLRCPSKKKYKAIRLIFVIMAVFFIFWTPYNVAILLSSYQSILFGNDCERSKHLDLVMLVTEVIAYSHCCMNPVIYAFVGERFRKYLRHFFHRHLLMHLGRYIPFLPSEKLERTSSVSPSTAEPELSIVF

[2] = molecular target: C-X-C chemokine receptor type 4 (Homo sapiens) (UniProt P61073); assay: Inhibition of CXCR4 (unknown origin) at 10 uM relative to control
[3] = molecular target: Atypical chemokine receptor 3 (Homo sapiens) (UniProt P25106); assay: Inhibition of CXCR7 (unknown origin) at 10 uM relative to control
[4] = molecular target: C-C chemokine receptor type 2 (Homo sapiens) (UniProt P41597); assay: Inhibition of CCR2 (unknown origin) at 10 uM relative to control
[5] = molecular target: T2, C-X-C chemokine receptor type 5 (Homo sapiens) (UniProt P32302); assay: Inhibition of CXCR5 (unknown origin) at 10 uM relative to control
T2 sequence (whole entry): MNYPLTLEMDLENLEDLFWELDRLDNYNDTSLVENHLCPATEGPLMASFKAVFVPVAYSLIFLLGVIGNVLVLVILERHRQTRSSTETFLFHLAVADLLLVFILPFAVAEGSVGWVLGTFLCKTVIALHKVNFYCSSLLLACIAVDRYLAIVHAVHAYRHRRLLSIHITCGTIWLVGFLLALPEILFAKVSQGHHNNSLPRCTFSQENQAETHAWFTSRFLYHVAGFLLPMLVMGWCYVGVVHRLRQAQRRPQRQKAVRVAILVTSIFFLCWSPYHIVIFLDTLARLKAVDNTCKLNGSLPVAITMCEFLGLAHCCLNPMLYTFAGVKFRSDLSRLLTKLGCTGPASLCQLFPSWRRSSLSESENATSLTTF

[6] = molecular target: T3, C-C chemokine receptor type 6 (Homo sapiens) (UniProt P51684); assay: Inhibition of CCR6 (unknown origin) at 10 uM relative to control
T3 sequence (whole entry): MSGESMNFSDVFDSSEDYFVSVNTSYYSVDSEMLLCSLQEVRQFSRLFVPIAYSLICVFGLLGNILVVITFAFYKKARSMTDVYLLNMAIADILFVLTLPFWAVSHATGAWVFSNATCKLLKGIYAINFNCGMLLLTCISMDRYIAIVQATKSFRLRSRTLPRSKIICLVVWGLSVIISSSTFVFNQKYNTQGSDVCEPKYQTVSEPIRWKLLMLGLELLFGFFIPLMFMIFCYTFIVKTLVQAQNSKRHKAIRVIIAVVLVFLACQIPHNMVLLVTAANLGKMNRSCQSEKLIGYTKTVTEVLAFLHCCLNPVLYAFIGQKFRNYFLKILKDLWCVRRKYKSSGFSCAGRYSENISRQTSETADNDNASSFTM

[7] = molecular target: T4, C-C chemokine receptor type 1 (Homo sapiens) (UniProt P32246); assay: Inhibition of CCR1 (unknown origin) at 10 uM relative to control
T4 sequence (whole entry): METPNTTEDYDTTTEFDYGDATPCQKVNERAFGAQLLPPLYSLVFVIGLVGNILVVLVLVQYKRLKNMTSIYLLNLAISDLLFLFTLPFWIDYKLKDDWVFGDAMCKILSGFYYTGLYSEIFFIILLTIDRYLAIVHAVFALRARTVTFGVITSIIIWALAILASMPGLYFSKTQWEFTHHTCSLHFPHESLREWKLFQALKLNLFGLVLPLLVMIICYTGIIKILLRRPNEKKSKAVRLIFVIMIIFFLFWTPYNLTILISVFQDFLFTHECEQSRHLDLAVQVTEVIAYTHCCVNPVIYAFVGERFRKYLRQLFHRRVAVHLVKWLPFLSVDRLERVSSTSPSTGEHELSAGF

Measured: inhibition

Cc1nc(C)n(CC(=O)N2CCN(c3sc(C(F)(F)F)nc3-c3nc4ccc(-c5noc(C)n5)cc4[nH]3)C[C@H]2C)n1
< 50%: all assays above
